Like-named read-outs stand apart in the source and are kept apart here.
Experiments:
[1] = target: biotinylated truncated STAT6 (123-632)-avi (Homo sapiens, UniProt P42226); assay: STAT6 HTRF binding assay; settings: read-out: STAT6 HTRF: Average IC50, 0.15 nM biotinylated truncated STAT6 (123-632)-avi, 20 nM fluorescein-labeled probe
STAT6 = STAT6 (Homo sapiens, UniProt P42226); assay: STAT6 MSD degradation in A549 cells; settings: for DC50: read-out: STAT6 MSD degradation DC50 (nM) 24 h
Outline: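 A549 cells treated with a 9-point 1:3 series (top up to 10 uM) for 4 to 24 hours at 37° C., then lysed in RIPA. STAT6 quantified by sandwich MSD electrochemiluminescence immunoassay. DC50 and Dmax from four-parameter nonlinear fit, reported as letter-code bins.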

Amino acid sequences for entries named in this document (tags omitted). Residues count along the entry.
UniProt P42226, whole entry: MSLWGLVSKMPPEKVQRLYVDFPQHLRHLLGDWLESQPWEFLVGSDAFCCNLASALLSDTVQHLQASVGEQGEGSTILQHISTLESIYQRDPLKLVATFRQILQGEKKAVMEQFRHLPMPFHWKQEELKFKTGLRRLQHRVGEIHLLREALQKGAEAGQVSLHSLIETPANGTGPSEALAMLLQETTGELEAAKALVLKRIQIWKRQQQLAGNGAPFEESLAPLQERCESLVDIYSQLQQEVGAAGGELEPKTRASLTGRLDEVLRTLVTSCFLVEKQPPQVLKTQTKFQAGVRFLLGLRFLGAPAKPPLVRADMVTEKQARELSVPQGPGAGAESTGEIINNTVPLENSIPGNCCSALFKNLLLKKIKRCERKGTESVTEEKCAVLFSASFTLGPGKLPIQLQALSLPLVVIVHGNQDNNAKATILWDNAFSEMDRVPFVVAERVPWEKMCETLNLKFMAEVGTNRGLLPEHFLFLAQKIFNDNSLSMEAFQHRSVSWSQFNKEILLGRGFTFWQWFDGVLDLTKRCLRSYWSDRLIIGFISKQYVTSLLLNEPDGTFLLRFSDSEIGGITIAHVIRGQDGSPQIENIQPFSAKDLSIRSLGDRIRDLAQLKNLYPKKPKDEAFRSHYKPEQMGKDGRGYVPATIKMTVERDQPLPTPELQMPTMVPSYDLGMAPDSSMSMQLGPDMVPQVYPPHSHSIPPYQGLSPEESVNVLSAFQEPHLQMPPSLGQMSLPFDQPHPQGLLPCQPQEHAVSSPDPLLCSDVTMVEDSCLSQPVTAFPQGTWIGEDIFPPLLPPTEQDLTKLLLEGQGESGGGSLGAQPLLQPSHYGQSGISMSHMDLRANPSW
UniProt P42226, 123-632 limits assumed: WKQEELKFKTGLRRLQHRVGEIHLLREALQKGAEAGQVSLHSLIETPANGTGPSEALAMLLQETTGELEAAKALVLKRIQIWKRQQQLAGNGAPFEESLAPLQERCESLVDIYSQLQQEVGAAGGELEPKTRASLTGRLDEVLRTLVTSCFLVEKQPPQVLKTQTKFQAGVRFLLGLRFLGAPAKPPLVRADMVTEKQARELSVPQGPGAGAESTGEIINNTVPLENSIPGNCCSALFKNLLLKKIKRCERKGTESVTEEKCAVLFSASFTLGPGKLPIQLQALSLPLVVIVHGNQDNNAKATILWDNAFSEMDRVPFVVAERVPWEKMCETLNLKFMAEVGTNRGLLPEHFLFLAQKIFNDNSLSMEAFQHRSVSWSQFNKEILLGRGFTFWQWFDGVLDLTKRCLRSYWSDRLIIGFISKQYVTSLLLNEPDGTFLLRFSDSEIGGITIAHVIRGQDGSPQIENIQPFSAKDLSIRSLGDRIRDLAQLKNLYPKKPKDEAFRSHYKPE

STAT6-HiBiT = STAT6-HiBiT (Homo sapiens, UniProt P42226); assay: STAT6 HiBiT degradation in A549 (STAT6-HiBiT) cells; settings: for DC50: read-out: STAT6 HiBiT degradation DC50 (nM) 24 h
Protocol: Degradation of STAT6 in endogenously tagged STAT6-HiBiT A549 cells was quantitatively measured using the Nano-Glo HiBiT Lytic Detection System (Promega, 3040). A549 (STAT6-HiBiT) cells were seeded in 384-well plates with a density of 1.25k cells per well in 20 μl fresh media. Compounds were then added to the assay plates using the Apricot S3 with a final top concentration of up to 10 uM in a 4-fold dilution series with total of 10 doses. The assay plates were then incubated for 24 hours at 37° C. under 5% CO2. At the assay endpoint, 20 μL of Nano-Glo HiBiT Lytic Reagent was added to each well and agitated on a plate shaker at 300 rpm for 10 minutes at room temperature. Luminescence was read on PHERAStar FSX Instrument (Is integration time). The data was analyzed by GraphPad Prism and the dose dependent STAT6 degradation was fit using the four-parameter inhibitor vs. response nonlinear regression.
The letter codes for DC50 (nM) include: A (<1 nM): B (1-10 nM); C (>10-100 nM); D (>100-1000 nM); E (>1000 nM); and F (not tested). The letter codes for Dmax (%) include: A (>90%); B (>70-90%); C (>50-70%); D (<50%); and E (not tested).

| Structure (SMILES) | IC50 ([1]; HTRF binding) [nM] | STAT6 MSD degradation Dmax % 24 h (STAT6) | DC50 (STAT6) [nM] | STAT6 HiBiT degradation Dmax % 24 h (STAT6-HiBiT) | DC50 (STAT6-HiBiT) [nM] | IC50 ([1]; 30 minutes at room temperature) [nM] |
| --- | --- | --- | --- | --- | --- | --- |
| Cc1nn(C2CCC(=O)NC2=O)c2cccc(CCN3CCN(c4cc(Cl)c(-c5cc(C6=CCCN(C(=O)CCn7cccn7)C6)c(F)c6[nH]c(C(=O)N(C)C)cc56)cc4F)CC3)c12 (single isomer, unassigned) [Example I-1079] | < 100 | A (A (>90%)) | < 1 | A (A (>90%)) | – | – |
| CN(C)C(=O)c1cc2c(-c3ccc(N4CCC(c5ccc(C6CCC(=O)NC6=O)cc5F)CC4)c(F)c3F)cc(C3=CCCN(C(=O)CCn4ccnn4)C3)c(F)c2[nH]1 (stereo not shown) | < 100 | A (A (>90%)) | < 1 | A (A (>90%)) | < 1 | – |
| CC(C)C(=O)N1CCC=C(c2cc(-c3ccc(N4CCN(CCc5cccc6c5n(C)c(=O)n6C5CCC(=O)NC5=O)CC4)cc3Cl)c3cc(C(=O)N(C)C)[nH]c3c2F)C1 (stereo not shown) | 1000 to 10000 | A (A (>90%)) | < 1 | A (A (>90%)) | < 1 | – |
| COc1cc(N2CCN(CCc3ccc(C4CCC(=O)NC4=O)cc3F)CC2)ccc1-c1cc(C2=CCCN(C(C)=O)C2)c(F)c2[nH]c(C(=O)N(C)C)cc12 (stereo not shown) | – | B (B (>70-90%)) | 1 to 10 | A (A (>90%)) | 1 to 10 | < 100 |
| COc1cc(N2CCN(CCc3ccc(C4CCC(=O)NC4=O)c(Cl)c3)CC2)ccc1-c1cc(C2=CCCN(C(C)=O)C2)c(F)c2[nH]c(C(=O)N(C)C)cc12 (stereo not shown) | – | B (B (>70-90%)) | 1 to 10 | A (A (>90%)) | 1 to 10 | < 100 |
| CN(C)C(=O)c1cc2c(-c3ccc(N4CCN(c5ncc(C6CCC(=O)NC6=O)cc5F)CC4)c(F)c3F)cc(C3=CCCN(C(=O)CCn4cccn4)C3)c(F)c2[nH]1 (stereo not shown) | < 100 | A (A (>90%)) | < 1 | B (B (>70-90%)) | < 1 | – |
| Cc1cc(C2CCN(c3cccc4c(C5CCC(=O)NC5=O)nn(C)c34)CC2)ccc1-c1cc(C2=CCCN(C(=O)CCn3cccn3)C2)c(F)c2[nH]c(C(=O)N(C)C)cc12 (stereo not shown) | 100 to 1000 | A (A (>90%)) | 1 to 10 | A (A (>90%)) | < 1 | – |
| CN(C)C(=O)c1cc2c(-c3ccc(N4CCN(CCCc5cccc6c5n(C)c(=O)n6C5CCC(=O)NC5=O)CC4)cc3)cc(C3=CCCN(C(=O)CCn4ccnn4)C3)cc2[nH]1 (stereo not shown) | – | A (A (>90%)) | < 1 | A (A (>90%)) | < 1 | < 100 |
| CN(C)C(=O)c1cc2c(F)c(C3=CCCN(C(=O)CCn4cccn4)C3)cc(-c3ccc(N4CCN(CCc5ccc(C6CCC(=O)NC6=O)cc5F)CC4)cc3)c2o1 (stereo not shown) | – | B (B (>70-90%)) | 1 to 10 | A (A (>90%)) | – | 100 to 1000 |
| CC(C)C(=O)N1CCC=C(c2cc(-c3ccc(N4CCN(CCc5cccc6c(C7CCC(=O)NC7=O)nn(C)c56)[C@@H](C)C4)cc3F)c3cc(C(=O)N(C)C)[nH]c3c2F)C1 (stereo partly shown) | 1000 to 10000 | A (A (>90%)) | 1 to 10 | A (A (>90%)) | 1 to 10 | – |
| Cc1cc(C2CCN(c3ccc(C4CCC(=O)NC4=O)cc3F)CC2)ccc1-c1cc(C2=CCCN(C(=O)CCn3cccn3)C2)c(F)c2[nH]c(C(=O)N(C)C)cc12 (stereo not shown) | < 100 | A (A (>90%)) | < 1 | A (A (>90%)) | – | – |
| CN(C)C(=O)c1cc2c(-c3ccc(C4CCN(c5ccc(C6CCC(=O)NC6=O)cc5F)CC4)c(F)c3)cc(C3=CCCN(C(=O)CCn4cccn4)C3)c(F)c2[nH]1 (stereo not shown) | 100 to 1000 | A (A (>90%)) | < 1 | A (A (>90%)) | < 1 | – |
| CN(C)C(=O)c1cc2c(-c3cc(F)c(N4CCC(N5CCC(c6ccc(C7CCC(=O)NC7=O)cc6F)CC5)CC4)cc3F)cc(C3=CCCN(C(=O)CCn4cccn4)C3)c(F)c2[nH]1 (stereo not shown) | < 100 | B (B (>70-90%)) | < 1 | A (A (>90%)) | < 1 | – |
| CN(C)C(=O)c1cc2c(-c3ccc(C4CCN(c5cc(F)c(C6CCC(=O)NC6=O)cc5F)CC4)cc3)cc(C3=CCCN(C(=O)CCn4cccn4)C3)c(F)c2[nH]1 (stereo not shown) | < 100 | A (A (>90%)) | < 1 | A (A (>90%)) | < 1 | – |
| CN(C)C(=O)c1cc2c(-c3cc(F)c(N4CCN(c5ccc(C6CCC(=O)NC6=O)cc5F)CC4)cc3F)cc(C3=CCCN(C(=O)CCn4ccnn4)C3)c(F)c2[nH]1 (stereo not shown) | < 100 | B (B (>70-90%)) | < 1 | A (A (>90%)) | < 1 | – |
| CN(C)C(=O)c1cc2c(-c3ccc(N4CCN(C5CCN(c6ccc(C7CCC(=O)NC7=O)cc6F)CC5)CC4)c(F)c3F)cc(C3=CCCN(C(=O)CCn4cccn4)C3)c(F)c2[nH]1 (stereo not shown) | < 100 | A (A (>90%)) | < 1 | A (A (>90%)) | – | – |
| CN(C)C(=O)c1cc2c(-c3ccc(N4CCC5(CC4)CN(c4ccc(C(=O)NC6CCC(=O)NC6=O)c(F)c4)C5)cc3)cc(C3=CCCN(C(=O)CCn4cccn4)C3)c(F)c2[nH]1 (stereo not shown) | < 100 | B (B (>70-90%)) | < 1 | A (A (>90%)) | < 1 | – |
| CC(=O)N1CCC=C(c2cc(-c3ccc(N4CCN(CCc5cccc6c5n(C)c(=O)n6C5CCC(=O)NC5=O)CC4)cc3OC(F)(F)F)c3cc(C(=O)N(C)C)[nH]c3c2F)C1 (stereo not shown) | – | A (A (>90%)) | < 1 | A (A (>90%)) | – | 100 to 1000 |
| Cc1nn(C2CCC(=O)NC2=O)c2cccc(CCN3CC[C@H](c4cc(Cl)c(-c5cc(C6=CCCN(C(=O)CCn7cccn7)C6)c(F)c6[nH]c(C(=O)N(C)C)cc56)cc4F)C(F)(F)C3)c12 (stereo partly shown) | < 100 | A (A (>90%)) | < 1 | A (A (>90%)) | < 1 | – |
| Cc1nn(C2CCC(=O)NC2=O)c2cccc(CCN3CCN(c4cc(F)c(-c5cc([C@H]6CCCN(C(=O)CCn7cccn7)C6)c(F)c6[nH]c(C(=O)N(C)C)cc56)cc4F)CC3)c12 (stereo partly shown) | < 100 | A (A (>90%)) | < 1 | A (A (>90%)) | < 1 | – |
| CN(C)C(=O)c1cc2c(-c3cc(F)c(N4CCN(CCc5cccc6c(C7CCC(=O)NC7=O)nn(C)c56)CC4)cc3Cl)cc(C3=CCCN(C(=O)CCn4cccn4)C3)c(F)c2[nH]1 (stereo not shown) | < 100 | A (A (>90%)) | < 1 | A (A (>90%)) | – | – |
| CN(C)C(=O)c1cc2c(-c3ccc(N4CCN(c5ccc(C6CCC(=O)NC6=O)cc5F)CC4)c(F)c3F)cc(C3=CCCN(C(=O)CCn4ccnn4)C3)c(F)c2[nH]1 (stereo not shown) | < 100 | A (A (>90%)) | 1 to 10 | A (A (>90%)) | < 1 | – |
| CN(C)C(=O)c1cc2c(-c3ccc(C4CCN(c5ccc(C6CCC(=O)NC6=O)cc5F)CC4)cc3F)cc(C3=CCCN(C(=O)CCn4cccn4)C3)c(F)c2[nH]1 (stereo not shown) | < 100 | A (A (>90%)) | < 1 | A (A (>90%)) | – | – |
| CN(C)C(=O)c1cc2c(-c3ccc(C4CCN(c5ccc(C6CCC(=O)NC6=O)cc5F)CC4)c(F)c3F)cc(C3=CCCN(C(=O)CCn4cccn4)C3)c(F)c2[nH]1 (stereo not shown) | 100 to 1000 | A (A (>90%)) | < 1 | A (A (>90%)) | < 1 | – |
| CN(C)C(=O)c1cc2c(-c3cc(F)c(N4CCN(C5CCN(c6ccc(C7CCC(=O)NC7=O)cc6F)CC5)CC4)cc3F)cc(C3=CCCN(C(=O)CCn4cccn4)C3)c(F)c2[nH]1 (stereo not shown) | < 100 | A (A (>90%)) | < 1 | A (A (>90%)) | < 1 | – |
